Values of other authors in patent US20220265700A1, “METHODS TO PREVENT, INHIBIT OR TREAT INTERVERTEBRAL DISC DEGENERATION” (University of Iowa Research Foundation, priority 2021, published 2022).

Test system: rat nucleus pulposus cells
Details: 30 μM tBHP (Lin et al., 2020); cited from earlier work

CC(C)(C)OO [tBHP, tert-butyl hydrogen peroxide]
cell apoptosis and mitochondrial dysfunction relative to control: 6-7 times
